TDP1 block – blocks human tyrosyl-DNA phosphodiesterase 1. recombinant TDP1, AlphaScreen DNA substrate cleavage. Potency, µM (top dose mostly 130 µM), inactives show top-dose activity change, negative = inhibition, hits mostly inhibitors. 0.28% of 350,000 active; further: potency means the concentration at half of the fitted maximal effect; on the % scale 0 is the no-effect control and ±100 the full control effect; nearly all actives have a fitted effect of over 40% in size
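E. coli-derived human Tdp1, 1 nM final. Cpd preinc 15 min RT; substrate 15 nM final, 5 min RT; AS bead mix 10 ug/ml final, 10 min RT. Signal loss = tyrosine-FITC cleavage. No-enzyme wells = max signal.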
uPA surface inh – blocks generation of uPA at the cell surface | Potency, µM (doses to about 38.3 µM), without a hit: at the highest dose activity change, negative = inhibition, hits mostly inhibitors | cell surface uPA generation assay, qHTS | 0.31% of 330,000 active | AID 540303; active means well fitted inhibition curve with a large enough effect; inconclusive means small, poorly fitted or top-dose-only effect; inactive means no such curve, though single readings can be large or run the other way; tested in mouse RAW 264.7 cells; further: potency means the concentration at half of the fitted maximal effect; on the % scale 0 is the no-effect control and ±100 the full control effect; nearly all actives have a fitted effect of over 55% in size
miR-21 reporter – raises the signal of a miR-21 reporter. Potency, µM (highest dose often 38.3 µM), without a hit: top-dose reporter change, positive = more light. 340,000 tested, under 10 active. HeLa miR-21 FLuc reporter, luciferase, 48 h; active = well fitted rising curve with a large enough effect; inconclusive = small, poorly fitted or top-dose-only effect; inactive = no such curve, though single readings can be large or run the other way;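 further: % of control where 0% means no effect; miR-21 action dims this reporter so a rising signal means less miR-21 action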
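HeLa cells stably expressing CMV-driven firefly luciferase with a downstream miR-21 binding sequence, endogenously expressing miR-21, were treated with titrations (up to about 40uM final) for 48 hours at 37 degree Celsius. Luciferase luminescence was read after lysis.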
TDP1 cell noCPT – qHTS for Inhibitors of human tyrosyl-DNA phosphodiesterase 1 (TDP1): qHTS in cells in absence of CPT | Potency, µM (series often up to 46.2 µM), inactives show at the top dose activity change, negative = growth inhibition, usual class: inhibitors | 15% of 420,000 active | DT40 Tdp1-/- hTDP1 cells, no CPT, ATP luminescence, 48 h; further: potency means the concentration at half of the fitted maximal effect; on the % scale 0 is the no-effect control and ±100 the full control effect; nearly all actives have a fitted effect of over 55% in size
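Growth kinetics read by CellTiter-Glo luminescence after ≥48 hr at 37 °C. Cells: DT40 Tdp1-/- stably carrying human TDP1, 400 per well, compound exposure in the absence of CPT (DMSO vehicle).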
DT40 TDP1 CPT – growth inhibition of DT40 Tdp1-/-;hTDP1 cells with camptothecin (screen for TDP1 inhibitors). chicken DT40 Tdp1-/-;hTDP1 cells + 20 nM CPT, ATP luminescence, 48 h. Potency, µM (top dose mostly 46.2 µM), inactives show at the highest dose activity change, negative = growth inhibition, actives largely listed as inhibitors. 12% of 420,000 active. AID 686979; further: potency means the concentration at half of the fitted maximal effect; on the % scale 0 is the no-effect control and ±100 the full control effect; nearly all actives have a fitted effect of over 55% in size
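Chicken DT40 Tdp1-/- cells stably complemented with human TDP1 were seeded at 400 cells/well in medium containing 20 nM camptothecin, exposed to pin-transferred compounds, and grown at 37 °C for at least 48 hr. Viability was read as ATP luminescence.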
* hit, by the source's call. An excerpt weighted towards active compounds, which were near 16% of everything screened. Unless noted, the call rests on the fitted dose curve; in most records, active means well fitted curve in the direction sought with a large enough effect; inconclusive means small, poorly fitted or top-dose-only effect, or another doubt; inactive means no such curve, though single readings can be large; an effect the other way counts as inactive or inconclusive.

For COc1ccccc1-c1cc(C(F)(F)F)nc(S(=O)(=O)CCCC(=O)N2CCCCC2C)n1 (stereo not drawn) the results were TDP1 block 4%, uPA surface inh -5%, miR-21 reporter inconclusive, TDP1 cell noCPT 4.1µM* and DT40 TDP1 CPT 4.1µM*.
For CC(C(=O)NC1CCCC1)N(Cc1ccc2c(c1)OCO2)C(=O)c1snc(C(N)=O)c1N (stereo not drawn) the results were TDP1 block 5%, uPA surface inh 5%, miR-21 reporter -10%, TDP1 cell noCPT -26% and DT40 TDP1 CPT -13%.
c1ccc(-n2ncc3c2ncn2nc(-c4ccco4)nc32)cc1 was read as TDP1 block 5%, uPA surface inh -14%, miR-21 reporter -55%, TDP1 cell noCPT -29% and DT40 TDP1 CPT inconclusive.
For CCn1c(SCc2nc(N)nc(N3CCCCC3)n2)nc2c1c(=O)n(C)c(=O)n2C the results were TDP1 block 1%, uPA surface inh -5%, miR-21 reporter -7%, TDP1 cell noCPT inconclusive and DT40 TDP1 CPT -20%.
CC(C)(C)C(=O)Nc1ccnn1C1CCN(C(=O)c2ccc(Cl)cc2F)CC1 was read as TDP1 block 0%, uPA surface inh -16%, miR-21 reporter -3%, TDP1 cell noCPT inconclusive and DT40 TDP1 CPT inconclusive.
O=C1C[C@@H]2c3c(cccc3CN1Cc1ccc(Br)cc1)C[C@@H](O)[C@H]2O was read as uPA surface inh 2%, TDP1 cell noCPT -22% and DT40 TDP1 CPT -2%.
For Cc1cccc(CN2Cc3cccc4c3[C@H](C=CC4)CC2=O)c1 the results were TDP1 cell noCPT 20µM* and DT40 TDP1 CPT 16µM*.
Cc1ccc(CN2Cc3cccc4c3[C@@H](CC2=O)[C@H](O)[C@H](O)C4)cc1 was read as TDP1 block 0%, uPA surface inh 19%, TDP1 cell noCPT -7% and DT40 TDP1 CPT -3%.
Screening O=C1C[C@H]2C=CCc3cccc(c32)CN1Cc1ccc(F)cc1 returned TDP1 cell noCPT 13µM* and DT40 TDP1 CPT inconclusive.
For COc1cc(-c2nnn(Cc3ccccc3C)n2)cc(OC)c1OC the results were uPA surface inh 3%, miR-21 reporter 5%, TDP1 cell noCPT 21µM* and DT40 TDP1 CPT inconclusive.
Screening COc1ccc(-c2nnn(Cc3ccccc3)n2)cc1OC returned uPA surface inh -4%, miR-21 reporter -30%, TDP1 cell noCPT -20% and DT40 TDP1 CPT 2%.
For Cc1csc(SCC(=O)Nc2ccc3c(c2)OCCO3)n1 the results were TDP1 block -3%, uPA surface inh 1%, miR-21 reporter -48%, TDP1 cell noCPT -7% and DT40 TDP1 CPT -17%.
`COc1ccc2sc(-c3ccc(S(C)(=O)=O)cc3)c(C(=O)NCCc3c[nH]c4ccccc34)c2c1` gave TDP1 block 3%, uPA surface inh 9%, TDP1 cell noCPT 16µM* and DT40 TDP1 CPT 21µM*.
Nc1[nH]c(C(=O)c2ccccc2)c(-c2ccc(Br)cc2)c1C(=O)NCCc1c[nH]c2ccccc12 was read as TDP1 cell noCPT 18µM* and DT40 TDP1 CPT inconclusive.
For COc1ccc(C(=O)c2[nH]c(N)c(C(=O)NCCc3c[nH]c4ccccc34)c2-c2ccc(Br)cc2)cc1 the results were TDP1 cell noCPT 21µM* and DT40 TDP1 CPT inconclusive.
For COc1ccc(C(=O)CCC(=O)NCCc2c[nH]c3ccccc23)cc1 the results were uPA surface inh -2%, miR-21 reporter -2%, TDP1 cell noCPT -23% and DT40 TDP1 CPT 0%.
For COc1ccc(C(=O)c2[nH]c(N)c(C(=O)NCCc3c[nH]c4ccccc34)c2-c2ccc(C(F)(F)F)cc2)cc1 the results were TDP1 cell noCPT 21µM* and DT40 TDP1 CPT 16µM*.
Screening COc1cc(/C=C/C(=O)O)ccc1OCc1ccc([N+](=O)[O-])cc1 returned TDP1 block -1%, uPA surface inh 4%, miR-21 reporter -1%, TDP1 cell noCPT -11% and DT40 TDP1 CPT 13%.
CC(C(=O)Nc1ccc2c(c1)OCCO2)N(C)CC(=O)Nc1ccccc1Br (stereo not drawn) was read as TDP1 block 0%, uPA surface inh -9%, TDP1 cell noCPT -10% and DT40 TDP1 CPT -6%.
CC(=O)N1c2ccc(S(=O)(=O)N3CCC(C(=O)Nc4cc(C)ccn4)CC3)cc2CC1C (stereo not drawn) was read as TDP1 block 0%, uPA surface inh 18%, miR-21 reporter -2%, TDP1 cell noCPT inconclusive and DT40 TDP1 CPT inconclusive.
`CC(=O)N1c2ccc(S(=O)(=O)NCC3CCC(C(=O)NC4CCCCC4)CC3)cc2CC1C` (stereo not drawn) gave TDP1 block -14%, uPA surface inh -1%, miR-21 reporter 16%, TDP1 cell noCPT 2.9µM* and DT40 TDP1 CPT -19%.
Screening CCCNC(=O)C1CCC(CNS(=O)(=O)c2ccc3c(c2)CC(C)N3C(C)=O)CC1 (stereo not drawn) returned TDP1 block 2%, uPA surface inh -20%, miR-21 reporter 0%, TDP1 cell noCPT inconclusive and DT40 TDP1 CPT inconclusive.
`CC(=O)N1c2ccc(S(=O)(=O)NCC3CCC(C(=O)NCCC(C)C)CC3)cc2CC1C` (stereo not drawn) gave TDP1 block 0%, miR-21 reporter 5%, TDP1 cell noCPT 16µM* and DT40 TDP1 CPT 15µM*.
`CC(=O)N1c2ccc(S(=O)(=O)NCC3CCC(C(=O)Nc4cc(C)ccn4)CC3)cc2CC1C` (stereo not drawn) gave TDP1 block 4%, uPA surface inh -4%, miR-21 reporter 21%, TDP1 cell noCPT 16µM* and DT40 TDP1 CPT 18µM*.
`CC(=O)N1c2ccc(S(=O)(=O)NCC3CCC(C(=O)NCc4ccc(C)cc4)CC3)cc2CC1C` (stereo not drawn) gave TDP1 block 3%, uPA surface inh -17%, miR-21 reporter 16%, TDP1 cell noCPT 15µM* and DT40 TDP1 CPT 21µM*.
`COc1cccc(N2CCN(C(=O)CSc3ccc(F)cc3)CC2)c1` gave TDP1 block 5%, uPA surface inh -2%, miR-21 reporter -24%, TDP1 cell noCPT inconclusive and DT40 TDP1 CPT -14%.
For CC(OC(=O)C1CCN(S(=O)(=O)c2ccccc2C(F)(F)F)CC1)C(=O)N(C)Cc1ccccc1 (stereo not drawn) the results were TDP1 block 1%, uPA surface inh 1%, miR-21 reporter 6%, TDP1 cell noCPT inconclusive and DT40 TDP1 CPT inconclusive.
`COc1ccc(-c2cc(-c3ccc(Cl)cc3)c(C#N)c(SCC(=O)O)n2)cc1` gave uPA surface inh -13%, miR-21 reporter -3%, TDP1 cell noCPT inconclusive and DT40 TDP1 CPT inconclusive.

Three records picked at random from the list so far:
`CC(=O)N1c2ccc(S(=O)(=O)NCC3CCC(C(=O)NCc4ccc(C)cc4)CC3)cc2CC1C` (stereo not drawn) gave TDP1 block 3%, uPA surface inh -17%, miR-21 reporter 16%, TDP1 cell noCPT 15µM* and DT40 TDP1 CPT 21µM*.
`CC(=O)N1c2ccc(S(=O)(=O)NCC3CCC(C(=O)NCCC(C)C)CC3)cc2CC1C` (stereo not drawn) gave TDP1 block 0%, miR-21 reporter 5%, TDP1 cell noCPT 16µM* and DT40 TDP1 CPT 15µM*.
For CC(OC(=O)C1CCN(S(=O)(=O)c2ccccc2C(F)(F)F)CC1)C(=O)N(C)Cc1ccccc1 (stereo not drawn) the results were TDP1 block 1%, uPA surface inh 1%, miR-21 reporter 6%, TDP1 cell noCPT inconclusive and DT40 TDP1 CPT inconclusive.
